Tests used:
[1] = system: PANC0403 pancreatic cancer cell line (VPS4B^loss); assay: Interferon dose-response curves with VPS4A suppression (CellTiter-Glo); assay type: cell-based, human; conditions: PANC0403 shVPS4A-2, co-treatment with 1 μM doxycycline, interferon titration for last 3 days
Protocol: (§1) To determine whether interferon treatment cooperate with VPS4A suppression, pancreatic cancer cell lines (KP4, PANC0403 and SNU213) stably expressing the doxycycline-inducible RNAi system against VPS4A (shVPS4A-2) were plated in white-walled 96-well plates at 100˜400 cells per well in 100 μL of 10% FBS-supplemented RPMI-1640 with L-glutamine with or without 1 μM doxycycline. Plates were incubated at 37° C., 5% CO2 for 3 days. A 9-point log 10 titration of a stock solution (5 μg/mL) of purified recombinant human interferon-β1 or interferon-γ (PeproTech 300-02BC; 300-02) dissolved in 1% BSA containing PBS with 0.3% Tween-20 was then added to the cells using a D300e Digital Dispenser (Tecan) using T8+ and D4+ dispense cassette heads (HP). At the same time, the doxycycline was refreshed. Cells were then incubated for an additional 3 days at 37° C., 5% CO2. Afterwards, 100 μL of premixed CellTiter-Glo (Promega) reagent was added to the wells to lyse cells by shaking the plates at 500 RPM for 10 minutes at room temperature. Luminescence for each well was then measured using an Envision plate reader (Perkin Elmer) to measure cell viability using the ATP-based readout. Luminescence signal for each well was normalized to the average signal from 6 wells treated without interferon for each cell line. […]

[2] = system: SNU213 pancreatic cancer cell line (VPS4B^loss); assay: as above; assay type: cell-based, human; conditions: SNU213 shVPS4A-2, co-treatment with 1 μM doxycycline, interferon titration for last 3 days
Protocol: as §1

B1: Interferon-β: purified recombinant human interferon-β1 (PeproTech) (protein, UniProt P01574 22-187, looked up)
Interferon beta: MSYNLLGFLQRSSNFQCQKLLWQLNGRLEYCLKDRMNFDIPEEIKQLQQFQKEDAALTIYEMLQNIFAIFRQDSSSTGWNETIVENLLANVYHQINHLKTVLEEKLEKEDFTRGKLMSSLHLKRYYGRILHYLKAKEYSHCAWTIVRVEILRNFYFINRLTGYLRN
- sensitization to VPS4A suppression (6-day cell viability) [1]: did not alter sensitivity
- sensitization to VPS4A suppression (6-day cell viability) [2]: strongly sensitized

— patent publication US20230181528A1, “COMPOSITIONS AND METHODS FOR TREATING NEOPLASIA” (The Broad Institute, Inc., priority 2020, published 2023)
